Data taken from patent publication US11077170B2, “Antimicrobial peptide from skate skin and uses thereof” (INDUSTRY-ACADEMIC COOPERATION FOUNDATION, CHOSUN UNIVERSITY, priority 2017, dated 2021).

Tested on: human erythrocytes
Experiment: Erythrocyte hemolytic activity
Format: cell-based
Details: 3.125 μM, 1 hour at 37° C., absorbance 414 nm, Triton X-100 = 100%
Experimental: To determine the cytotoxicity of the peptide, the erythrocyte hemolytic activity was measured as described below.
Specifically, human erythrocytes were washed 3 times with PBS (phosphate-buffered saline, pH 7.0) buffer solution, and then 8.0% erythrocyte solution diluted with PBS buffer was loaded in an amount of 10042 to each wall of a 96-well microtiter plate. Then, the peptide solution of the present invention was mixed therein at a concentration of 1.5, 3.125, 6.25, 12.5, 25, 50, 100, or 200 μM/well, followed by culture for 1 hour at 37° C. After that, the absorbance at a wavelength of 414 nm was measured. As a control group, melittin as a known antimicrobial peptide was treated at the same concentrations. By setting the absorbance of a treatment with 0.1% Triton X-100 at 100% as a control group that is served as a reference of hemolysis level of erythrocytes, the hemolysis rate of each peptide, i.e., hemolysis, was calculated using the following mathematical formula 1. Erythrocyte disrupting ability (%)=(Absorbance A−Absorbance B)/(Absorbance C−Absorbance B)×100 [Mathematical formula 1] […]

Structure (SMILES): CC[C@H](C)[C@H](NC(=O)CN)C(=O)NCC(=O)N[C@@H](C)C(=O)N[C@H](C(=O)N[C@@H](CC(C)C)C(=O)N[C@@H](CCCCN)C(=O)N[C@H](C(=O)N[C@@H](CC(C)C)C(=O)N[C@H](C(=O)N[C@H](C(=O)NCC(=O)N[C@@H](CC(C)C)C(=O)N1CCC[C@H]1C(=O)N[C@@H](C)C(=O)N[C@@H](CC(C)C)C(=O)N[C@H](C(=O)N[C@@H](CO)C(=O)N[C@@H](Cc1c[nH]c2ccccc12)C(=O)N[C@H](C(=O)N[C@@H](CCCCN)C(=O)N[C@@H](CCCNC(=N)N)C(=O)N[C@@H](CCCCN)C(=O)N[C@@H](CCCNC(=N)N)C(=O)N[C@@H](CCC(N)=O)C(=O)N[C@@H](CCC(N)=O)C(N)=O)[C@@H](C)CC)[C@@H](C)CC)[C@@H](C)O)[C@@H](C)O)C(C)C)C(C)C [melittin]
- hemolytic activity (hemolysis rate): at least 55%
